{"source": "patent US20020142945A1", "about": "“Immunomodulatory methods using carbohydrate antigens” (President and Fellows of Harvard College, priority 1998, published 2002)", "key": {"splenocytes": {"system": "splenocytes", "assay": "Cytokine production by cultured splenocytes of IP immunized mice (capture ELISA)", "format": "in vivo", "method": "Multivalent LNnT or Lewis^γ were conjugated with HSA (LNnT-HSA and Le^y-HSA) by Accurate Chemical and Scientific Corporation (NY). In both neoglycoproteins, 13 molecules of sugar conjugated to 1 HSA molecule. As controls, HSA (Sigma Chemical Co., Mo.), HSA adsorbed to alum (Intergen Company, NY; HSA-alum), or Dulbecco's PBS (Gibco BRL, NY) were prepared for immunization. Groups of four to six mice were immunized intraperitoneally or subcutaneously with Ags (10 μg of HSA) or saline. First and second boosting immunization were performed in the same fashion 2 and 3 weeks later, respectively. Protein concentration was determined by bicinchoninic acid (BCA) assay (Pierce, Ill.).\n(§1) In flat-bottom 24-well culture plates (Corning), suspensions of 2.5×10^6 cells per ml were cultured with ConA (2 μg/ml) or without restimulation at 37° C. in supplemented RPMI 1640 medium as described above. 24, 72 and 120 hrs later, the cell cultures were then centrifuged, and the culture supernatants were harvested and kept frozen (−80° C.) until assayed. Pelleted cells were resuspended then stained with mAbs coupled to FITC or PE for immunofluorescent staining. IL-2, IL-4, IL-5, IL-10 and IFN-γ levels in supernatants from ConA-stimulated or unstimulated splenocytes were measured by capture ELISA. In brief, Maxisorp microtitre plates (Nunc Laboratories Ltd., Denmark) were coated with 50 μl of capture Ab at 2.0 μg/ml (rat anti-mouse IL-5, IL-10 and IFN-γ from Pharmingen and rat anti-mouse IL-4 from Endogen, Mass.) in Carbonate-bicarbonate buffer by overnight incubation at 4° C. Wells were then washed with PBS-T four times and blocked by addition of 10% FCS in PBS (2 hours, 37° C.). 50 μl of culture supernatants and appropriate recombinant standards were then added to individual well in duplicate. For standard curves, recombinant IL-5 (0 to 5,000 pg/ml), IL-10 (0 to 25,000 pg/ml), IFN-γ (0 to 20,000 pg/ml) (Pharmingen, Calif.) and IL-4 (0 to 1,500 pg/ml) (Endogen, Mass.) were used in duplicate. Following overnight incubation at 4° C., the wells were washed and appropriate 50 μl/well biotinylated detection Ab at 1 μg/ml (rat anti-mouse IL-5, IL-10 or IFN-γ from Pharmingin and rat anti-mouse IL-4 from Endogen) were added. For the detection of bound biotinylated Ab, 50 μl of streptavidin-alkaline phosphatase conjugate ( 1/2000, Pharmingen) was added to each well for 45 minutes, then washed. Level of cytokine in the wells was visualized by addition of p-nitrophenyl phosphate (Sigma) in glycine buffer. Absorbance was measured at 405 nm using a UVMax automatic microplate reader."}, "B220+ cells": {"system": "B220+ cells", "assay": "B7-1 and B7-2 expression on B220+ splenocytes (immunofluorescent staining, flow cytometry)", "format": "in vivo, mice", "conditions": "freshly isolated splenocytes, IP immunized mice", "method": "as §1\nFollowing in vitro culture without restimulation, splenocytes were resuspended and incubated on ice for 15 min with mAbs as follows: anti-CD45R/B220 (RA3-6B2), anti-B7-1 (16-10A 1), and anti-B7-2 (GL-1) or isotype-matched controls. All mAbs were either FITC- or PE-conjugated (Pharmingen). After washing with Hanks' balanced salt solution (Gibco) containing 0.05% sodium azide, flow cytometry analysis was performed by using a FACSCalibur flow cytometer and Cell Quest software (Becton Dickinson, CA). Dead cells were excluded from analysis on the basis of propidium iodide (Molecular Probes, OR) staining. Lymphocytes were gated according to the physical characteristics of forward and side scatter and at least 10,000 events were acquired."}, "[1]": {"conditions": "in vitro stimulation ConA, 72 hrs"}}, "data": [{"substance": "Human serum albumin [HSA, reference compound]", "values": [{"measurement": "IL-5, IL-6, and IFN-γ production by splenocytes", "setting": "splenocytes; IL-4 deficient mice, without restimulation", "value": "not detected"}, {"measurement": "IFN-g", "setting": "splenocytes; [1]", "value": "3,577 ± 510 pg/ml"}, {"measurement": "IL-4", "setting": "splenocytes; [1]", "value": "31.81 ± 3.64", "unit": "pg/mL"}, {"measurement": "IL-5", "setting": "splenocytes; [1]", "value": "78 ± 6", "unit": "pg/mL"}, {"measurement": "IL-5", "setting": "splenocytes; in vitro stimulation none, 24 hrs", "value": "43 ± 2", "unit": "pg/mL"}, {"measurement": "IL-5", "setting": "splenocytes; in vitro stimulation none, 72 hrs", "value": "42 ± 1", "unit": "pg/mL"}, {"measurement": "IL-5", "setting": "splenocytes; in vitro stimulation none, 120 hrs", "value": "45 ± 6", "unit": "pg/mL"}, {"measurement": "percentage of the cells positive for both B7-2 and B220 molecules", "setting": "B220+ cells", "value": "0.59±0.05", "unit": "percentage"}, {"measurement": "percentage of the cells positive for both B7-1 and B220 molecules", "setting": "B220+ cells; n=6", "value": "0.95±0.07", "unit": "percentage"}]}]}
